Laboratory results from US5892063A (Hauser, Inc., priority 1997, dated 1999).

System: NCI-H322M
Assay: SRB growth screen, non-small cell lung cancer NCI-H322M
Conditions: 48 h

CC(=O)O[C@H]1C(=O)[C@@]2(C)[C@H]([C@H](OC(=O)c3ccccc3)[C@]3(O)C[C@H](OC(=O)[C@H](O)[C@@H](NC(=O)C4(C)OC4C)c4ccccc4)C(C)=C1C3(C)C)[C@]1(OC(C)=O)CO[C@@H]1C[C@@H]2O (stereo partly shown) [Ceph-epoxide, cephalomannine epoxide]
Log10 TGI: > -4.00 log10 M
